For this experiment, the system named is HES2 or HES3 cells. Briefly: 3i-induction of hepatocyte-like cells from human ES cells; dosages of medium components examined. The class given is cell-based. To be noted: in combination of SU5402, PD184352 and CHIR99021. How it is done:
HES2 or 3 cells were cultured for 5 days on MEF-feeders with 20% FCS hES medium in organ culture dishes. 20% FCS hES medium was replaced with 3i medium and cells were keeping culture in this medium for 3 days. Cells were detached as clumps by collagenase and feeder cells were removed by sedimentation in DMEM/F-12 medium.
Cells were seeded on MATRIGEL® (secreted gelatinous protein mixture) coated organ culture dish as 1 to 1 split and culture with 3i medium. After 3 to 5 days in culture, hepatoblast-like cells appeared. They were subsequently propagated using 3i or Kubota's medium following enzymatic dissection.
Organ culture dishes seeded with Mouse embryo fibroblast feeder cells Human embryonic stem cell medium containing 20% fetal calf serum (2) 3i* or new 3i** medium • Neuro basal medium 50% • DMEM/F-12 50% • N2 supplement 1/200 v/v • B27 supplement 1/100 v/v • 100 mM L-glutamine 1/100 v/v • 0.1M β-ME 1/1000 v/v • *SU5402 (FGFR inhibitor) 2 μM • *P0184352 (ERK cascade inhibitor) 0.8 μM • **PD0325901 (MAPK inhibitor) 0.4 μM • CHIR99021 (GSK3 inhibitor) 3 μM • **Dorsomorphin (BMP cascade inhibitor) 2 μM
HES2 or 3 cells were cultured 5 days on MEF-feeders with 20% FCS hES medium in organ culture dishes. 20% FCS hES medium was replaced with 3i medium and cells were maintained in this medium for 2 days.
Cells were detached as clumps by collagenase and feeder cells were removed by sedimentation in DMEM/F-12 medium.
Cells were seeded on MATRIGELO® (secreted gelatinous protein mixture) coated organ culture dish as 1 to 1 split and culture with 3i medium.
After 3 to 5 day culture, the hepatocyte-like cells appeared.

With `Cc1c[nH]c(-c2cnc(NCCNc3ccc(C#N)cn3)nc2-c2ccc(Cl)cc2Cl)n1` [CHIR99021], the “effect on hepatic differentiation/growth” value runs as follows: (CHIR99021 1.5 μM) “dramatically decreased hepatic differentiation/growth”; (CHIR99021 3 μM) “most efficient”; (CHIR99021 6 μM) “some kind of non-hepatic cells grow very well”.

The values above are taken from US8278105B2, “Induction, propagation and isolation of liver progenitor cells” (University of Southern California, priority 2008, dated 2012).
